Values joined by “and” are separate entries in the source; they are usually repeats but may differ in a detail not shown here. Identical values can stand only once. The list shows a part of the results, in another mix than the full data. More than one record can exist for a structure, and the calls need not agree. Active and inactive are the calls of the source. Cut-off read from the data, not from the text of the source: active = growth inhibition above about 70%; inactive = the rest.

The source of these data is PubChem BioAssay (NCI).

The nature of assay [1]: NCI Yeast Anticancer Drug Screen. Data for the rad50 strain (AID 155).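 Note: 0% = growth of vehicle-only cultures of the same strain.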 As to conditions: S. cerevisiae rad50 strain growth inhibition, stronger effect = higher value.
The nature of assay [2]: NCI Yeast Anticancer Drug Screen. Data for the mec2-1 strain (AID 157). The following applies: S. cerevisiae mec2-1 strain, stronger effect = higher value.
Assay [3] can be described thus: NCI Yeast Anticancer Drug Screen. Data for the sgs1 mgt1 strain (AID 161).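 Note: 0% = growth of cultures given vehicle only.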 The following applies: S. cerevisiae sgs1 mgt1 strain, stronger effect = higher value.
A short description of assay [4]: NCI Yeast Anticancer Drug Screen. Data for the cln2 rad14 strain (AID 165).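 Note: 0% = growth equal to vehicle treated cultures.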 As to conditions: S. cerevisiae cln2 rad14 strain, stronger effect = higher value.
Assay [5] is described as follows: NCI Yeast Anticancer Drug Screen. Data for the bub3 strain (AID 167). The following applies: S. cerevisiae bub3 mutant strain, stronger effect = higher value.
The nature of assay [6]: NCI Yeast Anticancer Drug Screen. Data for the mlh1 rad18 strain (AID 175). The following applies: S. cerevisiae mlh1 rad18 strain growth inhibition, stronger effect = higher value.
Where [7] appears, read: at 5.0 µM (retest, dose inferred, filed as 0.5).
Setting [8] is: at 50.0 µM (retest, dose inferred, filed as 5.0).

Turning to `COc1cc([N+](=O)[O-])c(Nc2ccc(Cl)cc2[N+](=O)[O-])c([N+](=O)[O-])c1`, the growth inhibition in assay [1] (setting [7]) is inactive: 33%; in assay [1] (setting [8]) it was active: 82%; in assay [1] (at 50.0 µM), active: 88.9%; in assay [2] (setting [7]) it was inactive: 13%; in assay [2] (setting [8]), inactive: 61%; in assay [2] (at 50.0 µM), active: 71%. In addition, the growth inhibition in assay [3] (setting [7]) was inactive: 23%; in assay [3] (setting [8]), active: 71%; in assay [3] (at 50.0 µM), active: 85.3%; in assay [4] (setting [7]), inactive: 6%; in assay [4] (setting [8]), inactive: 66%; in assay [4] (at 50.0 µM), inactive: 69.4%. In addition, the growth inhibition was inactive: 19% in assay [5] (setting [7]); inactive: 54% in assay [5] (setting [8]); active: 77.2% in assay [5] (at 50.0 µM); inactive: 6% in assay [6] (setting [7]); active: 86% in assay [6] (setting [8]); active: 90.9% in assay [6] (at 50.0 µM).

`ClCCN(CCCl)c1cccc(CN2CCCCC2)c1`: the growth inhibition is inactive: 23% in assay [1] (setting [7]); inactive: 63% in assay [1] (setting [8]); inactive: 32.7% and inactive: 39% in assay [1] (at 50.0 µM); inactive: 25% in assay [2] (setting [7]); inactive: 19% in assay [2] (setting [8]); inactive: 46.2% and inactive: 35.5% in assay [2] (at 50.0 µM). In addition, the growth inhibition was inactive: 36% in assay [3] (setting [7]); inactive: 62% in assay [3] (setting [8]); inactive: 65.6% and active: 74.9% in assay [3] (at 50.0 µM); inactive: 52% in assay [4] (setting [7]); inactive: 62% in assay [4] (setting [8]); inactive: 50.6% and inactive: 56% in assay [4] (at 50.0 µM). Besides, the growth inhibition in assay [5] (setting [7]) is inactive: 35%; in assay [5] (setting [8]), active: 79%; in assay [5] (at 50.0 µM) it was inactive: 61.1% and inactive: 38.6%; in assay [6] (setting [7]), inactive: 63%; in assay [6] (setting [8]), active: 84%; in assay [6] (at 50.0 µM) it was inactive: 66.6% and inactive: 61.5%.

On to `Cc1nn(-c2ccc([N+](=O)[O-])cc2[N+](=O)[O-])nc1[N+](=O)[O-]`, for which the growth inhibition is inactive: 11% in assay [1] (setting [7]); active: 99% in assay [1] (setting [8]); active: 78.7% in assay [1] (at 50.0 µM); inactive: -7% in assay [2] (setting [7]); active: 99% in assay [2] (setting [8]); inactive: 7.9% in assay [2] (at 50.0 µM). The growth inhibition is inactive: 11% in assay [3] (setting [7]); active: 100% in assay [3] (setting [8]); active: 87.4% in assay [3] (at 50.0 µM); inactive: -2% in assay [4] (setting [7]); active: 99% in assay [4] (setting [8]); inactive: -38.5% in assay [4] (at 50.0 µM). Further, the growth inhibition in assay [5] (setting [7]) is inactive: -1%; in assay [5] (setting [8]), active: 99%; in assay [5] (at 50.0 µM) it was inactive: 9.55%; in assay [6] (setting [7]) it was inactive: 19%; in assay [6] (setting [8]), active: 99%; in assay [6] (at 50.0 µM) it was inactive: 57.8%.

As to `CCC(/C=N/Nc1ccc([N+](=O)[O-])cc1[N+](=O)[O-])=N/Nc1ccc([N+](=O)[O-])cc1[N+](=O)[O-]`, the growth inhibition was inactive: 0% in assay [1] (setting [7]); inactive: -7% in assay [1] (setting [8]); inactive: -66.7% in assay [1] (at 50.0 µM); inactive: 1% in assay [2] (setting [7]); inactive: -4% in assay [2] (setting [8]); inactive: -9.55% in assay [2] (at 50.0 µM). Further, the growth inhibition in assay [3] (setting [7]) is inactive: 1%; in assay [3] (setting [8]) it was inactive: 3%; in assay [3] (at 50.0 µM) it was inactive: -17.1%; in assay [4] (setting [7]), inactive: 2%; in assay [4] (setting [8]), inactive: -3%; in assay [4] (at 50.0 µM), inactive: -29.4%. The growth inhibition in assay [5] (setting [7]) is inactive: 1%; in assay [5] (setting [8]) it was inactive: -7%; in assay [5] (at 50.0 µM), inactive: 5.25%; in assay [6] (setting [7]), inactive: 2%; in assay [6] (setting [8]) it was inactive: -5%; in assay [6] (at 50.0 µM), inactive: -9.45%.

As for `COc1cc([N+](=O)[O-])cc([N+](=O)[O-])c1`, the growth inhibition in assay [1] (setting [7]) is inactive: 10%; in assay [1] (setting [8]) it was inactive: 62%; in assay [1] (at 50.0 µM), inactive: 58.6%; in assay [2] (setting [7]) it was inactive: 7%; in assay [2] (setting [8]) it was inactive: 46%; in assay [2] (at 50.0 µM), inactive: 20.4%. Besides, the growth inhibition in assay [3] (setting [7]) is inactive: 1%; in assay [3] (setting [8]), inactive: 32%; in assay [3] (at 50.0 µM), active: 85.5%; in assay [4] (setting [7]) it was inactive: 11%; in assay [4] (setting [8]), inactive: 15%; in assay [4] (at 50.0 µM) it was inactive: -19.9%. Besides, the growth inhibition in assay [5] (setting [7]) was inactive: 11%; in assay [5] (setting [8]) it was inactive: 65%; in assay [5] (at 50.0 µM), active: 70.2%; in assay [6] (setting [7]), inactive: 9%; in assay [6] (setting [8]), inactive: 41%; in assay [6] (at 50.0 µM), active: 75.5%.

Regarding `CC(C)[C@@H]1[C@@H](C)[N+]1(C)C`, the growth inhibition in assay [1] (setting [7]) is inactive: 0%; in assay [1] (setting [8]), inactive: -2%; in assay [1] (at 50.0 µM), inactive: 8.5%; in assay [2] (setting [7]) it was inactive: -1%; in assay [2] (setting [8]) it was inactive: -6%; in assay [2] (at 50.0 µM) it was inactive: -1.9%. Further, the growth inhibition was inactive: -5% in assay [3] (setting [7]); inactive: -4% in assay [3] (setting [8]); inactive: 8.9% in assay [3] (at 50.0 µM); inactive: -1% in assay [4] (setting [7]); inactive: -3% in assay [4] (setting [8]); inactive: 38.8% in assay [4] (at 50.0 µM). The growth inhibition is inactive: -3% in assay [5] (setting [7]); inactive: -7% in assay [5] (setting [8]); inactive: 13.8% in assay [5] (at 50.0 µM); inactive: -1% in assay [6] (setting [7]); inactive: -5% in assay [6] (setting [8]); inactive: 17.6% in assay [6] (at 50.0 µM).

Turning to `O=C(c1cc(I)c(I)c(I)c1)N(CCCl)CCCl`, the growth inhibition is inactive: 4% in assay [1] (setting [7]); active: 98% in assay [1] (setting [8]); active: 79.8% in assay [1] (at 50.0 µM); inactive: 10% in assay [2] (setting [7]); active: 99% in assay [2] (setting [8]); inactive: 37.9% in assay [2] (at 50.0 µM). Moreover, the growth inhibition in assay [3] (setting [7]) was inactive: 43%; in assay [3] (setting [8]), active: 99%; in assay [3] (at 50.0 µM) it was active: 98.2%; in assay [4] (setting [7]) it was inactive: 10%; in assay [4] (setting [8]), active: 98%; in assay [4] (at 50.0 µM) it was inactive: 50.9%. In addition, the growth inhibition in assay [5] (setting [7]) is inactive: 23%; in assay [5] (setting [8]) it was active: 99%; in assay [5] (at 50.0 µM), active: 70%; in assay [6] (setting [7]), inactive: 21%; in assay [6] (setting [8]) it was active: 99%; in assay [6] (at 50.0 µM) it was active: 90.4%.

Take `C/C(=N\Nc1ccc([N+](=O)[O-])cc1[N+](=O)[O-])c1ccc(Cl)cc1[N+](=O)[O-]`: the growth inhibition was inactive: 1% in assay [1] (setting [7]); inactive: -4% in assay [1] (setting [8]); inactive: -0.25% in assay [1] (at 50.0 µM); inactive: -6% in assay [2] (setting [7]); inactive: -7% in assay [2] (setting [8]); inactive: 11.1% in assay [2] (at 50.0 µM). Moreover, the growth inhibition in assay [3] (setting [7]) is inactive: 0%; in assay [3] (setting [8]), inactive: -14%; in assay [3] (at 50.0 µM) it was inactive: -10.1%; in assay [4] (setting [7]), inactive: -13%; in assay [4] (setting [8]), inactive: -29%; in assay [4] (at 50.0 µM) it was inactive: 39.2%. In addition, the growth inhibition was inactive: 9% in assay [5] (setting [7]); inactive: 14% in assay [5] (setting [8]); inactive: 66% in assay [5] (at 50.0 µM); inactive: -1% in assay [6] (setting [7]); inactive: -2% in assay [6] (setting [8]); inactive: -2.65% in assay [6] (at 50.0 µM).

In the case of `O=C(Nc1ccc([N+](=O)[O-])cc1)c1cc([N+](=O)[O-])cc([N+](=O)[O-])c1Cl`, the growth inhibition is inactive: 18% in assay [1] (setting [7]); active: 90% in assay [1] (setting [8]); active: 91.7% in assay [1] (at 50.0 µM); inactive: -12% in assay [2] (setting [7]); active: 75% in assay [2] (setting [8]); active: 84.4% in assay [2] (at 50.0 µM). Also, the growth inhibition in assay [3] (setting [7]) is inactive: -4%; in assay [3] (setting [8]), active: 73%; in assay [3] (at 50.0 µM) it was active: 93.3%; in assay [4] (setting [7]), inactive: 1%; in assay [4] (setting [8]), active: 70%; in assay [4] (at 50.0 µM), active: 79.7%. Besides, the growth inhibition in assay [5] (setting [7]) was inactive: -2%; in assay [5] (setting [8]), active: 90%; in assay [5] (at 50.0 µM), active: 84.2%; in assay [6] (setting [7]), inactive: 6%; in assay [6] (setting [8]) it was active: 92%; in assay [6] (at 50.0 µM), active: 93%.
